## Antibody variant affinities, Ab-91 heavy chain, assay 2

Reference: Engelhart et al. 2022, doi:10.1038/s41597-022-01779-4. File: FLAb, binding data.

The target is the same throughout: PDVDLGDISGINAS, from the HR2 region of SARS-CoV-2 spike.

Parent: Ab-91, a human scFv built as VL, three GGGGS repeats, VH. Only the CDRs of the heavy chain vary.
VL: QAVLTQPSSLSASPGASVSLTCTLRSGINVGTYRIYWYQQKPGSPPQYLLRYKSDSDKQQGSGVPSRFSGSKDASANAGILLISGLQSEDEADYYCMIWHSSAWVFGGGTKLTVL
VH: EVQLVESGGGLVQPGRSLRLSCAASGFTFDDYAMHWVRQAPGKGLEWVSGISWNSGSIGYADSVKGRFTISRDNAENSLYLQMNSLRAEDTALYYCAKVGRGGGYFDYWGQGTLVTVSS

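Phage display of a naive human antibody library on the peptide gave the parent. AAYL51 was designed without a model: most single CDR substitutions and a random sample of double and triple ones. In AlphaSeq, yeast of one mating type display the scFv and yeast of the other type display the target. Binding brings cells together so that they mate, and sequencing counts the barcode pairs among the diploids. The ratio of observed to expected reads was calibrated, replicate by replicate, on BCL2-family standards whose Kd was known from biolayer interferometry. Each pool was mated in three replicate cultures.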

Substitutions are numbered in sequence along the VH above, starting at 1 (not Kabat).
Only single mutants are listed, position by position.
Scale: log10 of Kd in nM, estimated from mating counts; low values are strong binders.
A mean of the replicates is given; it leaves out those without a signal.
"no signal" marks a missing value. The strain was present, yet no cells mated with the target were sequenced in any replicate, which points to weak or no binding.

changes,"mean, log10 nM",detected
H35E,no signal,0 of 3
H35R,4.17,2 of 3
H35S,4.50,2 of 3
H35T,5.59,1 of 3
H35F,no signal,0 of 3
H35Q,4.53,2 of 3
H35P,5.38,1 of 3
H35L,no signal,0 of 3
H35N,5.59,1 of 3
G50P,4.77,1 of 3
G50H,5.58,1 of 3
G50D,4.39,2 of 3
G50A,no signal,0 of 3
G50R,5.17,2 of 3
G50I,no signal,0 of 3
G50L,no signal,0 of 3
G50F,5.03,2 of 3
G50C,no signal,0 of 3
G50N,5.23,3 of 3
G50V,no signal,0 of 3
G50T,5.95,2 of 3
G50E,5.18,2 of 3
I51Y,no signal,0 of 3
I51K,4.64,1 of 3
I51V,no signal,0 of 3
I51F,3.95,3 of 3
I51W,no signal,0 of 3
I51G,4.09,2 of 3
I51P,no signal,0 of 3
I51C,no signal,0 of 3
I51M,2.31,3 of 3
I51S,4.89,2 of 3
I51Q,no signal,0 of 3
I51H,4.54,2 of 3
I51T,3.94,2 of 3
I51D,no signal,0 of 3
S52T,4.58,3 of 3
S52L,3.56,1 of 3
S52Q,3.22,1 of 3
S52G,2.72,3 of 3
S52H,5.04,2 of 3
S52A,0.43,3 of 3
S52K,4.41,2 of 3
S52C,4.86,1 of 3
S52V,4.45,1 of 3
S52Y,5.23,1 of 3
S52N,3.98,2 of 3
S52F,no signal,0 of 3
S52R,4.79,2 of 3
S52W,5.30,3 of 3
S52E,4.46,2 of 3
S52P,no signal,0 of 3
W53E,4.14,2 of 3
W53M,no signal,0 of 3
W53R,2.58,3 of 3
W53T,6.26,1 of 3
W53Y,no signal,0 of 3
W53H,3.09,3 of 3
W53F,0.41,3 of 3
W53N,4.40,3 of 3
W53G,no signal,0 of 3
W53I,1.02,3 of 3
W53A,1.53,3 of 3

Parent in this assay: reference entry 1.86, copy in this library 0.88.
As a blank, each scFv also met three strains without target: over library AAYL51, 21% of these pairings were detected, typically at 4.54 and seldom below 3.26.